Where “and” joins values, the source holds several entries; their conditions need not be identical. Equal values may be shown once. The entries are a selection whose mix differs from that of the whole data set. Some tests of the compounds listed are not included; inactive here does not mean inactive elsewhere. Inconclusive results are not listed. Calls of active or inactive are those of the source. The call rests on the fitted dose curve; in most records, active means well fitted inhibition curve with a large enough effect in the polarisation, with a control signal flat (not every such curve was filed as active); inconclusive means small, poorly fitted or top-dose-only effect, or effect the other way, or a change in a side signal; inactive means no such curve, though single readings can be large or run the other way; the % refers to the polarisation.
On the % scale 0 is the no-effect control and ±100 the full control effect.

Chains of the proteins cited; added tags and fusions are not shown.
UniProt Q13526, whole entry: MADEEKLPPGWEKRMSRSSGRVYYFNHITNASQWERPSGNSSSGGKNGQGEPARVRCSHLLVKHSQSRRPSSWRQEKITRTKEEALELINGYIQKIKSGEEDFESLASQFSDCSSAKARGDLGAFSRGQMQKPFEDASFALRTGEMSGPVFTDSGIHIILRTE

For this assay, the target named is Peptidyl-prolyl cis-trans isomerase NIMA-interacting 1 (Homo sapiens) (UniProt Q13526). Description: qHTS Assay to Find Inhibitors of Pin1. To be noted: Pin1 FP peptide displacement, HiFluor488, 10 min; at 115 µM (top of the series). In general terms: qHTS replaces the single test concentration by a dilution series.
Regarding `O=C(NCC1(N2CCCCC2)CCCCC1)c1cc(F)c(F)cc1Cl`, the activity, negative = inhibition is inactive: -5.11%.
Under `C=CCN1CCN(CCOC(=O)C(O)(c2ccccc2)c2ccccc2)CC1` stands inactive: 7.73%; under `O=C(NCC1(N2CCCCC2)CCCCC1)c1cccc(Br)c1`, inactive: 0.477%; under `CCN1CCCC(OC(=O)C2(O)c3ccccc3C=Cc3ccccc32)C1` (stereo not given), inactive: 0.79%.
The same measure for `Cc1cc(C(=O)NCC2(N3CCCCC3)CCCCC2)ccc1[N+](=O)[O-]`: inactive: 0.668%; for `CCOc1cccc(C(=O)NCC2(N(C)C)CCCCC2)c1`: inactive: -4.29%; for `COc1ccc(C(=O)NCC2(N(C)C)CCCCC2)cc1`: inactive: -0.811%.
With `CN(C)c1ccc(C(=O)NCC2(N(C)C)CCCCC2)cc1`, the activity, negative = inhibition is inactive: 1.05%.
Consider `CN(C)C1CCCC1OC(=O)C(O)(c1ccccc1)c1ccccc1` (stereo not given), for which the activity, negative = inhibition was inactive: -0.621%.
The same measure for `Cc1ccccc1C(=O)NCC1(N2CCCCC2)CCCCC1`: inactive: 3.12%; for `CN(C)C1(CNC(=O)c2ccccc2[N+](=O)[O-])CCCCC1`: inactive: -7.96%.
The same measure for `CCCCOc1ccccc1C(=O)NCC1(N(C)C)CCCCC1`: inactive: 0.189%.
The same measure for `CC(C)N1C(=O)CC2(CCN(CCOC(=O)C(O)(c3ccccc3)c3ccccc3)CC2)C1=O`: inactive: 3.53%; for `COc1cc(SC)ccc1C(=O)NCC1(N(C)C)CCCCC1`: inactive: -1.75%; for `CCN(CC)CC(C)C(C)OC(=O)C(O)(c1ccccc1)c1ccccc1` (stereo not given): inactive: -1.79%.
As for `CN(C)C1(CNC(=O)c2cccc(Cl)c2)CCCCC1`, the activity, negative = inhibition was inactive: -5.59%.
The same measure for `CN(C)C1(CNC(=O)c2ccccc2F)CCCCC1`: inactive: 1.64%; for `Cc1ccc(C(=O)NCC2(N3CCCCC3)CCCCC2)cc1`: inactive: -0.674%; for `O=C(NCC1(N2CCCCC2)CCCCC1)c1cc([N+](=O)[O-])ccc1Cl`: inactive: 4.17%.
Under `CN1[C@@H]2CC[C@H]1CC(OC(=O)C(O)(c1ccccc1)c1ccccc1)C2` (stereo not given in full) stands inactive: 0.859%; under `COc1ccc(Br)c(C(=O)NCC2(N3CCCCC3)CCCCC2)c1`, inactive: 23.3%.
With `COc1cc(C(=O)NCC2(N(C)C)CCCCC2)cc(OC)c1OC`, the activity, negative = inhibition is inactive: -5.54%.
The same measure for `Cc1cccc(C(=O)NCC2(N(C)C)CCCCC2)c1`: inactive: -0.694%; for `CN(C)c1cccc(C(=O)NCC2(N(C)C)CCCCC2)c1`: inactive: -5.03%.
On to `O=C(OCCN1CCCC1)C(O)(c1ccccc1)c1ccccc1`, for which the activity, negative = inhibition was inactive: -3.32%.
Under `CC(C)Oc1ccc(C(=O)NCC2(N(C)C)CCCCC2)cc1` stands inactive: 3% and inactive: 2.46%.
The same measure for `O=C(OC1CN2CCC1CC2)C(CO)(c1ccccc1)c1ccccc1` (stereo not given): inactive: -0.715%.
As to `COc1cccc(C(=O)NCC2(N3CCOCC3)CCCCC2)c1`, the activity, negative = inhibition is inactive: 20.3%.
Under `CC(C)COc1ccc(C(=O)NCC2(N(C)C)CCCCC2)cc1` stands inactive: 2.69%.
The same measure for `COc1ccc(C(=O)NCC2(N(C)C)CCCCC2)cc1Cl`: inactive: -3.5%.
Under `COc1ccc(Cl)cc1C(=O)NCC1(N(C)C)CCCCC1` stands inactive: -0.322%; under `COc1cccc(C(=O)NCC2(N3CCCCC3)CCCCC2)c1`, inactive: -3.99%; under `O=C(NCC1(N2CCCCC2)CCCCC1)c1cccc(Cl)c1`, inactive: 2.76%.
As to `CN(C)C1(CNC(=O)c2ccc(Br)cc2)CCCCC1`, the activity, negative = inhibition was inactive: -2.9%.
Under `COc1cc(C(=O)NCC2(N(C)C)CCCCC2)c([N+](=O)[O-])cc1OC` stands inactive: -7.45%.

Source of the values: PubChem BioAssay AID504891 (National Center for Advancing Translational Sciences (NCATS), 2011).
